# Patent publication US11566003B2, “Isoquinolines as inhibitors of HPK1” (priority 2017, dated 2023)
# Where two headings read alike, the source gives them in different places.
# Experiments:
# [1] = system: primary human pan T cells; details: anti-CD3/anti-CD28 stimulation 4 hours
# HPK1 [2] = biological target: T1, HPK1 (Homo sapiens (Human), UniProt Q92918); details: Lantha binding assay, 2 nM HPK1, 15 nM Tracer222
# HPK1 [3] = biological target: HPK1 (Homo sapiens (Human), UniProt Q92918, S171E/T165E); assay: biochemical
# HPK1 [4] = biological target: T1, HPK1; assay: biochemical; details: HPK1 Ki (nM) L = Lanth, Lantha binding assay; 2 nM HPK1, 15 nM Tracer222
smiles,measurement,setting,value
"Cc1c(N)cncc1-c1cc2cc(NC(=O)[C@H]3[C@@H]4COC[C@@H]43)ncc2c(N)c1F [Compound 158, (1R,5S,6r)-N-(8-amino-6-(5-amino-4-methylpyridin-3-yl)-7-fluoroisoquinolin-3-yl)-3-oxabicyclo[3.1.0]hexane-6-carboxamide]",% IL-2 increase relative to untreated cells,[1]; assayed concentration 0.93 μM,343%
"CO[C@@H]1CC[C@@H](C)c2cc(Nc3cc4cc(-c5cncc(N)c5C)c(F)c(N)c4cn3)nn2C1 (single isomer, unassigned) [Compound 266]",% IL-2 increase relative to untreated cells,[1]; assayed concentration 0.93 μM,438%
"CC(C)N1CCc2cc(Nc3cc4cc(-c5cncc6c5OCCN6)c(F)c(N)c4cn3)nn2CC1=O [Compound 284, 2-[[8-amino-6-(3,4-dihydro-2H-pyrido[4,3-b][1,4]oxazin-8-yl)-7-fluoro-3-isoquinolyl]amino]-6-isopropyl-5,8-dihydro-4H-pyrazolo[1,5-d][1,4]diazepin-7-one]",% IL-2 increase relative to untreated cells,[1]; assayed concentration 0.93 μM,529%
"Cc1ccncc1-c1cc2cc(NC(=O)[C@@H]3C[C@H]3c3cn(C)nn3)ncc2c(N)c1F [Compound 356, (1R,2R)—N-(8-amino-7-fluoro-6-(4-methylpyridin-3-yl)isoquinolin-3-yl)-2-(1-methyl-1H-1,2,3-triazol-4-yl)cyclopropane-1-carboxamide]",Ki,HPK1 [2]; read-out: HPK1 Ki (nM) L = Lanth,2.2 nM
"CC[C@H]1[C@@H](C(=O)Nc2cc3cc(-c4cncc(N)c4C)c(F)c(N)c3cn2)[C@@H]1c1cnn(C)c1 (single isomer, unassigned) [Compound 279]",% IL-2 increase relative to untreated cells,[1]; assayed concentration 0.10 μM,333%
"Cc1ccncc1-c1cc2cc(Nc3cc4n(n3)CC(=O)N(C)CC4)ncc2c(N)c1F [Compound 230, 2-((8-amino-7-fluoro-6-(4-methylpyridin-3-yl)isoquinolin-3-yl)amino)-6-methyl-5,6-dihydro-4H-pyrazolo[1,5-d][1,4]diazepin-7(8H)-one]",Ki,HPK1 [3],0.15 nM
same,Ki,"HPK1 [2]; read-out: HPK1 Ki (μm), (Lanth)",0.15 nM
"Cc1ccncc1-c1cc2cc(NC(=O)[C@H]3C[C@@H]3c3cn(C)nn3)ncc2c(N)c1F [Compound 354, (1S,2S)-N-(8-amino-7-fluoro-6-(4-methylpyridin-3-yl)isoquinolin-3-yl)-2-(1-methyl-1H-1,2,3-triazol-4-yl)cyclopropane-1-carboxamide]",Ki,HPK1 [4],0.84 nM
"Cc1c(N)cncc1-c1cc2cc(Nc3cc4n(n3)CS(=O)(=O)N(C)C4)ncc2c(N)c1F [Compound 276, 2-((8-amino-6-(5-amino-4-methylpyridin-3-yl)-7-fluoroisoquinolin-3-yl)amino)-5-methyl-4,5-dihydro-7H-pyrazolo[5,1-d][1,2,5]thiadiazine 6,6-dioxide]",% IL-2 increase relative to untreated cells,[1]; assayed concentration 0.31 μM,1157%
